{"sequences": {"note": "The chains behind the UniProt entries cited, without tags or fusion partners. Where a name states a change or a piece, a line headed by the entry shows the natural chain unless it says otherwise.", "UniProt Q4G017": "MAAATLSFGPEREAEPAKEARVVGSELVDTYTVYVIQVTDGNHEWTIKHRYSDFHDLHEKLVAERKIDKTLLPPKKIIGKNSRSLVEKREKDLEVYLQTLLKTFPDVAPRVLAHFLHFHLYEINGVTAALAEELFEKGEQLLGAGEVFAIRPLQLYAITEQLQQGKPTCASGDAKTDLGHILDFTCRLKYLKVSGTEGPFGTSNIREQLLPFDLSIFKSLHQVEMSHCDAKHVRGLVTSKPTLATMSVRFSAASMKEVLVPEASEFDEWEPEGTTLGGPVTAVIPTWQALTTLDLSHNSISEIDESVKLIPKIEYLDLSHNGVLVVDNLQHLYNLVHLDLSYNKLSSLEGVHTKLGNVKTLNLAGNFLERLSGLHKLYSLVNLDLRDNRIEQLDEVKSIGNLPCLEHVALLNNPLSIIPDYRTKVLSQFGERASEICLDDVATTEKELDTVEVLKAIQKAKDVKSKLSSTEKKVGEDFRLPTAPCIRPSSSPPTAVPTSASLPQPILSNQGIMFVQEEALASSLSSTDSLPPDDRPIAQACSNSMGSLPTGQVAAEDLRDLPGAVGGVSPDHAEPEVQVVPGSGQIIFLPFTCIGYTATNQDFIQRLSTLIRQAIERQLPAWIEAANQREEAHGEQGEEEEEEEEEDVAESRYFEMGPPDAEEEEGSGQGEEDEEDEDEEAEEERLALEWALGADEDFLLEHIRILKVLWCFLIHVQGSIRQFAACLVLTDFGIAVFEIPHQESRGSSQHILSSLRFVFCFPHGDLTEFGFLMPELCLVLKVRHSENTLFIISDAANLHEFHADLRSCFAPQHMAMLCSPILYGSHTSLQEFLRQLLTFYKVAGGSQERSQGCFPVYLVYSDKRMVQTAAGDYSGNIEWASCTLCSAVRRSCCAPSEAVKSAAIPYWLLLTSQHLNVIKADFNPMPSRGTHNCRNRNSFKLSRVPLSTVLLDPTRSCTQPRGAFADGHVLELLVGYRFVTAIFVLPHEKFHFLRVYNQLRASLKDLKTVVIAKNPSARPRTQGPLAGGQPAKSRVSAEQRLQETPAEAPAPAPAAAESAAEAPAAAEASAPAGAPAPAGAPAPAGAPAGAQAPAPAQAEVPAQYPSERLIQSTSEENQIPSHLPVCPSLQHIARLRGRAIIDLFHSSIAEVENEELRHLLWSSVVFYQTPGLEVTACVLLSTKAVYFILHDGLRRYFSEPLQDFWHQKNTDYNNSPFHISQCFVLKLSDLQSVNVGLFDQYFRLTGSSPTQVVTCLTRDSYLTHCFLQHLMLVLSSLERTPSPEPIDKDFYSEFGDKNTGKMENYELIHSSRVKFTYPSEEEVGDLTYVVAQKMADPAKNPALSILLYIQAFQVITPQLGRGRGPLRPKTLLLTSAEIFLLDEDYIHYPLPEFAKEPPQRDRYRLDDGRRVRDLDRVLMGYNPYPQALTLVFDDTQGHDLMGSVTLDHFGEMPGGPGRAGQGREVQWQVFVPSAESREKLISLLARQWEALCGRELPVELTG"}, "source": "ChEMBL document CHEMBL3580533", "about": "“Antagonism/Agonism modulation to build novel antihypertensives selectively triggering i1-imidazoline receptor activation” (ACS Med Chem Lett, 2015)", "key": {"PC-12": {"test_system": "PC-12", "assay": "Selectivity ratio, […]-imidazoline receptor in rat PC12 cell membranes to […] adrenoreceptor in rat cortex membranes", "format": "cell-based"}, "Nischarin": {"molecular_target": "Nischarin (Rattus norvegicus, UniProt Q4G017)", "assay": "Displacement of [125I]-p-iodoclonidin from I1-imidazoline receptor in rat PC12 cell membranes", "set-up": "species or system PC-12"}}, "note": "pKi: −log10 of the molar value.", "data": [{"compound": "CC(Cc1ccccc1)C1=NCCN1", "note": "(configuration not stated)", "values": [{"measurement": "Ratio", "setting": "PC-12", "value": 708}, {"measurement": "pKi", "setting": "Nischarin", "value": 8.30}]}]}
